Laboratory results from article PMC3961306, “Comparison of the Cancer Gene Targeting and Biochemical Selectivities of All Targeted Kinase Inhibitors Approved for Clinical Use” (PLoS ONE, 2014).
pIC50: −log10 of the molar value. Blank lines part the entries; values can stand above or below the compound they belong to.

Sequences of proteins named here, by UniProt entry; tags and fusion partners are left off. Residues count along the entry.
UniProt P41240, whole entry, stated change not applied: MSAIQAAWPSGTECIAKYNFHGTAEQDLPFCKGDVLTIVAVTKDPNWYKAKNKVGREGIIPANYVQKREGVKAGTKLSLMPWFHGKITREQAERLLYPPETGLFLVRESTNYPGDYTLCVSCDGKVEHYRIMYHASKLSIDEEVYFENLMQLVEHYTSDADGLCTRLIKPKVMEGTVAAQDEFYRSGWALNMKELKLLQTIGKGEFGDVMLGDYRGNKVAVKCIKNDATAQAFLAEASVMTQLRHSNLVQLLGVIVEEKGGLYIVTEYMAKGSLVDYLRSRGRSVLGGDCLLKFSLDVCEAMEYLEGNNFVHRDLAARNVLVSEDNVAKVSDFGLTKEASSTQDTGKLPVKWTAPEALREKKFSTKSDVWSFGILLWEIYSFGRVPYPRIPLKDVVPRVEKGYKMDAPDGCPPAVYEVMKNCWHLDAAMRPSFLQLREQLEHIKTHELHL
UniProt O75914, whole entry, stated change not applied: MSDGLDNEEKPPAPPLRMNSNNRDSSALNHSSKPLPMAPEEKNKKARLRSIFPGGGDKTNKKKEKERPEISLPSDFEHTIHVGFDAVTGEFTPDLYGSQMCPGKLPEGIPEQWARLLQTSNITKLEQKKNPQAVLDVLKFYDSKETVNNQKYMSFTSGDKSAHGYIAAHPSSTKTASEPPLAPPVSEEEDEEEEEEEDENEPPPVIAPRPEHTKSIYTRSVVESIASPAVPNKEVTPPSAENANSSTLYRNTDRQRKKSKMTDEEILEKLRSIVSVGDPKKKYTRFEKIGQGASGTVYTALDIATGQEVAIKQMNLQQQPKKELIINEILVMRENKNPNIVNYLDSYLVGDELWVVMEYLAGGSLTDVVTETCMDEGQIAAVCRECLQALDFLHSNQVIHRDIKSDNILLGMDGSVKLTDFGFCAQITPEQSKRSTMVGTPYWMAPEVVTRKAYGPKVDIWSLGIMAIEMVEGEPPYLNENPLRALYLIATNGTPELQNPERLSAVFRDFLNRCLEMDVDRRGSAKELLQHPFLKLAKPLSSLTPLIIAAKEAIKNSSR
UniProt Q15349, whole entry, stated change not applied: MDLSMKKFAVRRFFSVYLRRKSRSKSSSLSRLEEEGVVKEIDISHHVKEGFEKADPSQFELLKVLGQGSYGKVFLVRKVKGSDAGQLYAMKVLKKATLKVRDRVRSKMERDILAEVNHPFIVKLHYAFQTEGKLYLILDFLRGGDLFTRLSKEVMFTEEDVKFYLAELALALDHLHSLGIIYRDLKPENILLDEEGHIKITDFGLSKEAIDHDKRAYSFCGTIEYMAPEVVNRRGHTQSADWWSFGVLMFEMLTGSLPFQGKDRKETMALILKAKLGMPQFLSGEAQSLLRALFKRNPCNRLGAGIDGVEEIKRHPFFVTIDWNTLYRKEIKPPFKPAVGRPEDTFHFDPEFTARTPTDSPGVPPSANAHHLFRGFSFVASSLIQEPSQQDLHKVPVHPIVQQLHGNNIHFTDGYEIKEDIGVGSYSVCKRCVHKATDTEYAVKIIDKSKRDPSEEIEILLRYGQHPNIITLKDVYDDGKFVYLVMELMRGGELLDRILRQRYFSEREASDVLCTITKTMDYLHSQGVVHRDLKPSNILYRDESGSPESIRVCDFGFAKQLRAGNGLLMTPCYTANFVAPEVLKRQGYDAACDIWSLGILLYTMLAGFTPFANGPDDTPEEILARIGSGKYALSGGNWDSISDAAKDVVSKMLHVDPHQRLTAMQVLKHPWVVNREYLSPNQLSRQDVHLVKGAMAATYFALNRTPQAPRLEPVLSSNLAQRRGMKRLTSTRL
UniProt Q02763, 23-1124, stated change not applied: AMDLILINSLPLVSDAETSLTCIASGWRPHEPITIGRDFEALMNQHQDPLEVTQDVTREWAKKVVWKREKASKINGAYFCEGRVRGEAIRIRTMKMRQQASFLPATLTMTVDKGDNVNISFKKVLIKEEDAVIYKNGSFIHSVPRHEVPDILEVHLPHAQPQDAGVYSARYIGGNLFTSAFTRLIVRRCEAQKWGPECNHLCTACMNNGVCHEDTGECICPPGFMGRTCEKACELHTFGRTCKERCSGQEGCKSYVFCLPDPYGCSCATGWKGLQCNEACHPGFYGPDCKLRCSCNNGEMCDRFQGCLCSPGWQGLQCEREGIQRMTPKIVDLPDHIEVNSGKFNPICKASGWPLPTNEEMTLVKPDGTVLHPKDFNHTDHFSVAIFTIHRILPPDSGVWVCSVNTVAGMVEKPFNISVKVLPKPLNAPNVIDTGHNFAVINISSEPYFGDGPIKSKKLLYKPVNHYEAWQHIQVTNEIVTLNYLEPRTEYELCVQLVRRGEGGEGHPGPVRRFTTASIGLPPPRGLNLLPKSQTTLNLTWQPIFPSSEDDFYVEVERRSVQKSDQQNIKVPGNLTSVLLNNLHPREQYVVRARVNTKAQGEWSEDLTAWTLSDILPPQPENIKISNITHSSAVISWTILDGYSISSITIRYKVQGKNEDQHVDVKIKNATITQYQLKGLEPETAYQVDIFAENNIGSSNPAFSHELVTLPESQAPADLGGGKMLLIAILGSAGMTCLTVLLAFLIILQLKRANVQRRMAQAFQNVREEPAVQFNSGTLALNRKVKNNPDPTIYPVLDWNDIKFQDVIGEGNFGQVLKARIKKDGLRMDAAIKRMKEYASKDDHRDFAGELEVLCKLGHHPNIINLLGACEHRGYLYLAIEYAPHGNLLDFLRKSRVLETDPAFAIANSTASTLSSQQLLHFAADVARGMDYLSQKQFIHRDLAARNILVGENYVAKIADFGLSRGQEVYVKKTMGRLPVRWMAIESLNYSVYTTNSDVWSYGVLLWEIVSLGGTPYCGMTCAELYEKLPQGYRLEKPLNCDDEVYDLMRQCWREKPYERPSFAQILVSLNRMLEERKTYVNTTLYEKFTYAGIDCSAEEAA

What was measured:
[1] = test system: panel of more than 300 wild-type and mutant kinases (313 kinase panel); assay: Kinase profiling in a biochemical assay panel (mobility shift assays and ELISA), %-inhibition at 1 μM; selectivity entropy; conditions: for %-inhibition of EML4-ALK / %-inhibition of LYNb / %-inhibition of PKCβ2 / %-inhibition of SRM: 1 µM
[2] = test system: forty-four human cancer cell lines; assay: Cell proliferation assay (ATPlite, 72 hours) in the 44 cell line Oncolines panel; conditions: read-out: IC50 in cell proliferation assay (table S5 cellpanel data), U-87 MG cell line
[3] = target: panel of more than 300 wild-type and mutant kinases (313 kinase panel) (Homo sapiens, UniProt P41240); assay: Kinase profiling in a biochemical assay panel (mobility shift assays and ELISA), %-inhibition at 1 μM; selectivity entropy; conditions: 1 µM
[4] = target: panel of more than 300 wild-type and mutant kinases (313 kinase panel) (Homo sapiens, UniProt O75914); assay: as above; conditions: 1 µM
[5] = target: panel of more than 300 wild-type and mutant kinases (313 kinase panel) (Homo sapiens, UniProt Q15349); assay: as above; conditions: kinase RSK3; 1 μM
[6] = target: panel of more than 300 wild-type and mutant kinases (313 kinase panel) (Homo sapiens, UniProt Q02763); assay: as above; conditions: TIE2, 1 μM inhibitor

SMILES: Cc1nc(Nc2ncc(C(=O)Nc3c(C)cccc3Cl)s2)cc(N2CCN(CCO)CC2)n1 [dasatinib]
%-inhibition of NPM1-ALK [1]: -7.5%
%-inhibition of TAK1-TAB1 [1]: 5.29%
%-inhibition of EML4-ALK [1]: -5%
%-inhibition of LYNb [1]: 102%
%-inhibition of PKCβ2 [1]: 5.27%
%-inhibition of SRM [1]: 100%

pIC50 [2]: 7.00
SMILES: COc1cccc2c1C(=O)c1c(O)c3c(c(O)c1C2=O)C[C@@](O)(C(=O)CO)C[C@@H]3O[C@H]1C[C@H](N)[C@H](O)[C@H](C)O1 [doxorubicin]

SMILES: C#Cc1cccc(Nc2ncnc3cc(OCCOC)c(OCCOC)cc23)c1 [erlotinib]
%-inhibition of CSK [3]: 4.27%
%-inhibition of PAK3 [4]: -4.27%

SMILES: O=S(=O)(c1cccc2cnccc12)N1CCCNCC1 [fasudil]
%-inhibition of RSK3 [5]: 42%

SMILES: CS(=O)(=O)CCNCc1ccc(-c2ccc3ncnc(Nc4ccc(OCc5cccc(F)c5)c(Cl)c4)c3c2)o1 [lapatinib]
%-inhibition of TAK1-TAB1 [1]: -1.15%
%-inhibition of EML4-ALK [1]: -4.22%

SMILES: CNC(=O)c1cc(Oc2ccc(NC(=O)Nc3ccc(Cl)c(C(F)(F)F)c3)c(F)c2)ccn1 [regorafenib]
Biochemical inhibition of TIE2 [6]: minor

SMILES: CNC(=O)c1cc(Oc2ccc(NC(=O)Nc3ccc(Cl)c(C(F)(F)F)c3)cc2)ccn1 [sorafenib]
%-inhibition of NPM1-ALK [1]: -9%
%-inhibition of TAK1-TAB1 [1]: 48%
%-inhibition of EML4-ALK [1]: -1.16%
%-inhibition of LYNb [1]: 69%
%-inhibition of PKCβ2 [1]: -3.4%
%-inhibition of SRM [1]: 28%
